Water solubility values, as collected for the OPERA models

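The OPERA project collected these measurements from public sources as training and test data for property models. A listed value is a point estimate from one report or more. Method, purity and exact conditions of the single measurements are not given. A value may pool stereoisomers or salt forms, and the file does not say which form was measured. Unmarked limits or estimates from the upstream databases cannot be ruled out.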

Solubility in water is on a log10 molar scale (set defined at 25 °C).
Cells with "–" have no entry in this list.

| compound | name | log S (log10 mol/L) |
|---|---|---|
| COC(=O)c1cc(C(=O)O)cc([N+](=O)[O-])c1 | 1,3-Benzenedicarboxylic acid, 5-nitro-, 1-methyl ester | -2.074 |
| CCCCCCCCCCCC | Dodecane | -7.665 |
| COC(=O)[C@@H]1CC2=CC(=O)CC[C@]2(C)[C@@]23O[C@@H]2C[C@@]2(C)[C@@H](CC[C@@]24CCC(=O)O4)[C@H]13 | Eplerenone | -4.662 |
| Ic1[nH]c(I)c(I)c1I | Iodol [USP] | -3.46 |
| Cc1cc(/N=N/c2c([O-])c(C(=O)[O-])cc3ccccc23)c(S(=O)(=O)[O-])cc1Cl.[H+].[Mn+2] | – | -4.435 |
| C=CC(=O)OCCCCOc1ccc(C(=O)Oc2ccc(OC(=O)c3ccc(OCCCCOC(=O)C=C)cc3)c(C)c2)cc1 | – | -7.44 |
| CC(C)c1cccc(=O)c(O)c1 | beta-Thujaplicin | -2.14 |
| CCOc1ccc(-c2nc(-c3ccccc3)nc(-c3ccccc3O)n2)cc1 | 2-[4-(4-Ethoxyphenyl)-6-phenyl-1,3,5-triazin-2-yl]phenol | -7.291 |
| C1=Cc2ccccc2C1 | 1H-Indene | -2.832 |
| NC(=O)C1CCCN1C(=O)COC(=O)c1ccccc1 (stereo unspecified) | 2-(2-Carbamoyl-1-pyrrolidinyl)-2-oxoethyl benzoate | -2.265 |
| C#CCON=C1CC2CCC1(C)C2(C)C (stereo unspecified) | Heptopargil | -2.312 |
| C=CCCCCC=C | 1,7-Octadiene | -4.023 |
| CC(CCc1ccc(O)cc1)NCCc1ccc(O)c(O)c1 (racemic) | – | -4.342 |
| CCCCCCCCCCCCCCCC(=O)NCCC[N+](C)(C)C.[Cl-] | – | -3.25 |
| C=COCC | Ethene, ethoxy- | -0.85 |
| Nc1c(S(=O)(=O)[O-])cc(Nc2ccccc2)c2c1C(=O)c1ccccc1C2=O.[Na+] | Acid Blue 25 | -2.174 |
| O=C(Nc1ccccc1)NC1CCCC1 | N-Cyclopentyl-N'-phenylurea | -2.951 |
| CCc1cccc2c3c([nH]c12)C(CC)(CC(=O)O)OCC3 (stereo unspecified) | Etodolac | -3.865 |
| Cc1ccc2cccc(O)c2n1 | 8-Quinolinol, 2-methyl- | -1.731 |
| O=S(=O)(O)c1ccc2[nH]c(-c3ccccc3)nc2c1 | Ensulizole | -3.181 |
| O=C(O)c1cc2c(cc1C(=O)O)OCO2 | 1,3-Benzodioxole-5,6-dicarboxylic acid | -1.544 |
| O=S(=O)(Oc1ccc(Cl)cc1)c1ccccc1 | Fenson | -4.21 |
| Cc1cc(S(=O)(=O)O)c(N)cc1Cl | 4-Amino-6-chlorotoluene-3-sulphonic acid | -2.406 |
| Cc1ccc(NCCO)c([N+](=O)[O-])c1 | Hydroxyethyl-2-nitro-p-toluidine | -2.747 |
| O=C(c1ccccc1)c1ccc(Cl)cc1 | 4-Chlorobenzophenone | -4.02 |
| CC(C)CC(=O)CC(C)CC(C)C (stereo unspecified) | 2,6,8-Trimethyl-4-nonanone | -3.923 |
| C[C@H](CC(N)=O)C(N)=O | (2R)-2-Methylsuccinamide | -0.813 |
| C=CC(=O)OCCCCCCCCCCCCCCCCCC | Stearyl acrylate | -7.21 |
| CC(C)(C)c1cc(CCC(=O)NCCCNC(=O)CCc2cc(C(C)(C)C)c(O)c(C(C)(C)C)c2)cc(C(C)(C)C)c1O | – | -5.922 |
| O=C(O)C(=O)Cc1ccccc1 | Phenylpyruvic acid | -0.166 |
| c1ccc(-c2ccc(C(c3ccccc3)n3ccnc3)cc2)cc1 (stereo unspecified) | Bifonazole | -5.951 |
| CCn1c(O)c(N=Nc2ccccc2[N+](=O)[O-])c(C)c(C#N)c1=O | – | -6.816 |
| Clc1cc(Oc2ccccc2)cc(Cl)c1Cl | 3,4,5-Trichlorodiphenyl ether | -6.77 |
| CO[Si](CC(C)C)(OC)C(C)C | Silane, dimethoxy(1-methylethyl)(2-methylpropyl)- | -4.024 |
| CCC(C)(CCCC(C)C)OC(C)=O (stereo unspecified) | 3,7-Dimethyloctan-3-yl acetate | -5.103 |
| CC(C)CN(C[C@@H](O)[C@H](Cc1ccccc1)NC(=O)O[C@@H]1CCOC1)S(=O)(=O)c1ccc(N)cc1 | Amprenavir | -4.057 |
| NS(=O)(=O)c1cc2c(s1)C(O)CCS2(=O)=O (stereo unspecified) | – | -1.276 |
| CCCCCCN1CC(C(=O)OC)CC1=O (stereo unspecified) | Methyl 1-hexyl-5-oxopyrrolidine-3-carboxylate | -1.246 |
| Clc1ccc(Oc2cc(Cl)c(Cl)cc2Cl)cc1Cl | 2,3',4,4',5-Pentachlorodiphenyl ether | -7.83 |
| SCCSCC(CS)SCCS (stereo unspecified) | 1-Propanethiol, 2,3-bis[(2-mercaptoethyl)thio]- | -4.355 |
| C=CC(=O)OCCOC(=O)Nc1cccc(SC)c1 | – | -3.893 |
| COc1ccc2c(c1)-c1nn(CCCN(C)C)c3ccc([N+](=O)[O-])c(c13)N2 | Pyrazoloacridine | -2.739 |
| CCCCCC(C)C | 2-Methylheptane | -4.48 |
| C=COCC1CCC(COC=C)CC1 (stereo unspecified) | 1,4-Bis[(ethenyloxy)methyl]cyclohexane | -3.927 |
| c1cc(C2(c3ccc(OCC4CO4)cc3)CCCCC2)ccc1OCC1CO1 (stereo unspecified) | – | -4.978 |
| O=C(O)CCS(=O)(=O)CCC(=O)O | Propionic acid, 3,3'-sulfonyldi- | -1.967 |
| Cn1c(=O)c2nc(C(=O)O)c(=O)[nH]c2n(C)c1=O | – | -2.323 |
| O=Cc1cc(O)c(O)c([N+](=O)[O-])c1 | 3,4-Dihydroxy-5-nitrobenzaldehyde | -1.938 |
| CC(COC=O)OC=O (stereo unspecified) | Propane-1,2-diyl diformate | -3.19 |
| CC(=O)[C@]1(O)Cc2c(O)c3c(c(O)c2[C@@H](O[C@H]2C[C@H](N)[C@H](O)[C@H](C)O2)C1)C(=O)c1ccccc1C3=O | Idarubicin | -2.809 |
| CC(=O)O.CC1CN(C2CCCCCCCCCCC2)CC(C)O1 (stereo unspecified) | Dodemorph acetate | -2.66 |

Excerpt, the final 8 entries:

{"smiles": "C=COCC1CCC(COC=C)CC1", "stereo": "stereo unspecified", "name": "1,4-Bis[(ethenyloxy)methyl]cyclohexane", "log S (log10 mol/L)": "-3.927"}
{"smiles": "c1cc(C2(c3ccc(OCC4CO4)cc3)CCCCC2)ccc1OCC1CO1", "stereo": "stereo unspecified", "log S (log10 mol/L)": "-4.978"}
{"smiles": "O=C(O)CCS(=O)(=O)CCC(=O)O", "name": "Propionic acid, 3,3'-sulfonyldi-", "log S (log10 mol/L)": "-1.967"}
{"smiles": "Cn1c(=O)c2nc(C(=O)O)c(=O)[nH]c2n(C)c1=O", "log S (log10 mol/L)": "-2.323"}
{"smiles": "O=Cc1cc(O)c(O)c([N+](=O)[O-])c1", "name": "3,4-Dihydroxy-5-nitrobenzaldehyde", "log S (log10 mol/L)": "-1.938"}
{"smiles": "CC(COC=O)OC=O", "stereo": "stereo unspecified", "name": "Propane-1,2-diyl diformate", "log S (log10 mol/L)": "-3.19"}
{"smiles": "CC(=O)[C@]1(O)Cc2c(O)c3c(c(O)c2[C@@H](O[C@H]2C[C@H](N)[C@H](O)[C@H](C)O2)C1)C(=O)c1ccccc1C3=O", "name": "Idarubicin", "log S (log10 mol/L)": "-2.809"}
{"smiles": "CC(=O)O.CC1CN(C2CCCCCCCCCCC2)CC(C)O1", "stereo": "stereo unspecified", "name": "Dodemorph acetate", "log S (log10 mol/L)": "-2.66"}

From the experimental data distributed with OPERA 2.9.